Reference: EP0584223B1, “NOVEL IMMUNOSUPPRESSIVE COMPOUNDS” (VERTEX PHARMACEUTICALS INCORPORATED, priority 1991, dated 1992)

Chains of the proteins cited; added tags and fusions are not shown.
UniProt P62942, whole entry: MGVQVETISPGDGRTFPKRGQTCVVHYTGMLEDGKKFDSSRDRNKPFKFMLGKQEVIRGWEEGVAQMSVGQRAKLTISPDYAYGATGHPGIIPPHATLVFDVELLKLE

Molecular target: FKBP (Homo sapiens, UniProt P62942)
Assay: Inhibition of FKBP PPIase (rotamase) activity, chymotrypsin-coupled assay
Assay type: biochemical
Settings: apparent Ki
Excerpt: The inhibition of the PPIase (rotamase) enzyme activity of the FKBP (apparent "Ki" values) can also be measured according to the methods described by either Harding, M.W. et al., Nature 341:758-760 (1989) or Siekierka, J.J. et al., Nature 341:755-757 (1989). The cis-trans isomerization of the […] peptide bond in a model substrate, N-succinyl-Ala-Ala-Pro-Phe-p-nitroanilide, is monitored spectrophotometrically in a coupled assay with chymotrypsin, which releases 4-nitroanilide from the trans form of the substrate. Fischer, G. et al., Nature 337:476-478 (1989). The inhibitory effect of the addition of different concentrations of inhibitor on the extent of the reaction is determined, and analysis of the change in first order rate constant as a function of inhibitor concentration yields an estimate of the apparent Ki value.

COc1cc(C(=O)C(=O)N2CCCC[C@H]2C(=O)OC(CCCc2ccccc2)CCc2cccnc2)cc(OC)c1OC (mixture of isomers) [Compound 7, (R and S)-6-Phenyl-1-(3-pyridyl)-3-hexyl (S)-N-(3,4,5-trimethoxyphenylglyoxyl)pipecolate]
Ki: 3 nM
